The list shows a part of the results, in another mix than the full data. The source made the active and inactive calls. Rule as the data show it: active = inhibition above about 22%; inactive = the rest.
biological target: Melanin-concentrating hormone receptor 1 (Homo sapiens) (UniProt Q99705); assay: MCHR1 antagonists in cells, counter-screen for GPR7 antagonist project, cell-based, fluorescence, human (AID 2148); conditions: MCHR1-expressing cells, fluorescence antagonist assay; at 4.4 µM; active compounds read high;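 also: 0% = vehicle with agonist and 100% = vehicle without agonist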

| Structure (SMILES) | inhibition |
| --- | --- |
| O=C(O)c1cccc(Nc2c([N+](=O)[O-])cc([N+](=O)[O-])cc2[N+](=O)[O-])c1 | inactive: -10.1% |
| CCCOc1ccc(NP(C)(=O)Oc2ccc(Cl)cc2)cc1 (configuration not stated) | inactive: 6.65% |

From PubChem BioAssay AID2148 (The Scripps Research Institute Molecular Screening Center, 2009)
